Consider seven compounds from patent publication US12649725B2 (Worcester Polytechnic Institute, priority 2020, dated 2026).

Where two headings read alike, the source gives them in different places. Bounds are passed on as bounds.

For data set [1], the system named is HL60 cells.
A further data set concerns Jurkat cells. Put plainly: Cytotoxicity assay (CellTiter-Glo) in Jurkat cells. Particulars: cytotoxicity screening in Jurkat cell lines, FIG. 20. For orientation: Cellular ATP, detected with luciferase, serves as a proxy for viable cell number.
Data set [2] relates to L5178Y cells.
For data set [3], the system named is L5178Y cells. Nature of the data set: Cytotoxicity assay (CellTiter-Glo) in L5178Y cells. Particulars: read-out: Chromenone cytotoxicity IC50, L5178Y, 48 hours post drug incubation, cell viability by CellTiter-Glo, triplicate.
Data set [4] can be described thus: Cytotoxicity assay (CellTiter-Glo) in Jurkat cells. Particulars: human, Jurkat cells.
A short description of data set [5]: Cytotoxicity assay (CellTiter-Glo) in L5178Y cells. The conditions noted are these: mouse.
A short description of data set [6]: Cytotoxicity assay (CellTiter-Glo) in HL60 cells. The conditions noted are these: human, Chromenone cytotoxicity IC50, HL60, HL60 cells, 48 hours post drug incubation, cell viability by CellTiter-Glo, triplicate.
The test system of data set [7] is HL60 cells. Nature of the data set: Cytotoxicity assay (CellTiter-Glo) in HL60 cells. The conditions noted are these: read-out: Chromenone cytotoxicity IC50, HL60, 48 hours post drug incubation, cell viability by CellTiter-Glo, triplicate.

Turning to “5-Methoxychromone-2-tetrahydrofuran Dimer [Compound 35e]”, the IC50 in the data set with HL60 cells [1] is > 50 µM; with KB cells it was > 50 µM; with L5178Y cells [2] it was 39 ± 1.1 µM. Moreover, the “Cytotoxicity in Jurkat screening (in words)” value in the data set with Jurkat cells was “highest levels of cytotoxicity”.
Turning to `COC(=O)C(C)(C)c1cc(=O)c2c(O)ccc(-c3ccc(O)c4c(=O)cc(C(C)(C)C(=O)OC)oc34)c2o1` [Compound 28c, Dimethyl 2,2′-(5,5′-Dihydroxy-4,4′-dioxo-4H,4′H-[8,8′-bichromene]-2,2′-diyl)bis(2-methylpropanoate)], the IC50 in the data set on L5178Y cells [3] came out at 39 ± 1.1 µM. For the same compound, the midpoint of inhibition in [4], the IC50 at 48 h, lay at 39 ± 1.1 µM.
Consider `O=c1cc(C2CCCO2)oc2c(-c3ccc(O)c4c(=O)cc(C5CCCO5)oc34)ccc(O)c12` (centres unmarked) [Compound 28e, 5,5′-Dihydroxy-2,2′-bis(tetrahydrofuran-2-yl)-4H,4′H-[8,8′-bichromene]-4,4′-dione], for which inhibition in data set [4] was half-maximal at 39 ± 1.1 µM (IC50 at 48 h).
Consider `COC(=O)C(C)(C)c1cc(=O)c2c(OC)c(-c3ccc4oc(C(C)(C)C(=O)OC)cc(=O)c4c3OC)ccc2o1` [Compound 35c, Dimethyl 2,2′-(5,5′-Dimethoxy-4,4′-dioxo-4H,4′H-[6,6′-bichromene]-2,2′-diyl)bis(2-methylpropanoate)], for which the IC50 at 48 h in [5] (Chromenone cytotoxicity IC50, L5178Y, 48 hours post drug incubation, cell viability by CellTiter-Glo, triplicate) came to 39 ± 1.1 µM; in data set [6], 39 ± 1.1 µM; in data set [4], 39 ± 1.1 µM.
`COC(=O)C(C)(C)c1cc(=O)c2c(OC)ccc(-c3ccc(OC)c4c(=O)cc(C(C)(C)C(=O)OC)oc34)c2o1` [Compound 39c, Dimethyl 2,2′-(5,5′-Dimethoxy-4,4′-dioxo-4H,4′H-[8,8′-bichromene]-2,2′-diyl)bis(2-methylpropanoate)]: in the data set on HL60 cells [7], the IC50 stood at 39 ± 1.1 µM. The compound further returned an IC50 at 48 h in data set [4] of 39 ± 1.1 µM.
The compound `COc1ccc(-c2ccc(OC)c3c(=O)c(C(C)=O)c(C)oc23)c2oc(C)c(C(C)=O)c(=O)c12` [Compound 42, 3,3′-Diacetyl-5,5′-dimethoxy-2,2′-dimethyl-4H,4′H-[8,8′-bichromene]-4,4′-dione] had an IC50 at 48 h in data set [6] of 39 ± 1.1 µM.
In data set [5], `COc1ccc(-c2ccc(OC)c3c(=O)c(C(C)=O)c([C@@H](OC(C)=O)C(C)C)oc23)c2oc([C@@H](OC(C)=O)C(C)C)c(C(C)=O)c(=O)c12` [Compound 48c] showed an IC50 at 48 h of 39 ± 1.1 µM.

In general, IC50 refers to the concentration that gives 50% inhibition.
